For one experiment, the target named is BLK (Homo sapiens (Human), UniProt P51451). Nature of the experiment: BLK kinase assay (HTRF). The following applies: read-out: BLK IC50; [ATP]=20 μM, BLK=0.6 nM.
The target of a further experiment is LYN (Homo sapiens (Human), UniProt P07948). Nature of the experiment: LYN kinase assay (HTRF). Particulars: read-out: LYN IC50; [ATP]=20 μM, LYN=0.12 nM. (TR-FRET usually uses a lanthanide donor and a delayed reading to cut background.)

Protein sequences, listed by entry. Tags and fused reporters are not part of them.
UniProt P51451, whole entry: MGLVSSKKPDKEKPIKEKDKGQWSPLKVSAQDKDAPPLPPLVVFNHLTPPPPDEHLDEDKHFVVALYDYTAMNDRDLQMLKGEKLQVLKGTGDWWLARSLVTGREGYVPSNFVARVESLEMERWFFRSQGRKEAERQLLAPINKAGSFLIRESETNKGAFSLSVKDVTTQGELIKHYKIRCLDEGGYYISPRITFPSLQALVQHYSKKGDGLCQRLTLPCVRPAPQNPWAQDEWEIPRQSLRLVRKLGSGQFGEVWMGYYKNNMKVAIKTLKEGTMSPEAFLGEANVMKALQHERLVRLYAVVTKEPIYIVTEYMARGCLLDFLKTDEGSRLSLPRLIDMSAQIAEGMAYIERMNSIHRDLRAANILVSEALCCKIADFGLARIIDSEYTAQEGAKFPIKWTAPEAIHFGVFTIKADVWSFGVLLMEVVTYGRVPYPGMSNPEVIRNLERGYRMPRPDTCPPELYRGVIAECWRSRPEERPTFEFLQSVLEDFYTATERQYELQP
UniProt P07948, whole entry: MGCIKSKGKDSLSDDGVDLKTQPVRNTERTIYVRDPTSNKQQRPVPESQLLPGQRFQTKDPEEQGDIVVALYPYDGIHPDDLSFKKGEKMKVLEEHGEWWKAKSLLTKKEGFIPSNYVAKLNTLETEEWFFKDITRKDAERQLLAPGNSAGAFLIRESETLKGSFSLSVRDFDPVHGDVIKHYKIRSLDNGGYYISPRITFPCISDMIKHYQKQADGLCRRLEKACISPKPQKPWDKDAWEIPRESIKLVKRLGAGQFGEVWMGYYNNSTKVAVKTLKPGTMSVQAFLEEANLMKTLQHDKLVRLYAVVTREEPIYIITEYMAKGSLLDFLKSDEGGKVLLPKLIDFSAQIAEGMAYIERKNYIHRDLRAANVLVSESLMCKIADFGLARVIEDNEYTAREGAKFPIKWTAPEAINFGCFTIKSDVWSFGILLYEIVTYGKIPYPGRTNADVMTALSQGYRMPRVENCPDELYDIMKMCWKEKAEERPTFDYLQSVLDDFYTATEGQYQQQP

From patent publication US10358446B2, “Bruton's tyrosine kinase inhibitors” (Zibo Biopolar Changsheng Pharmaceutical Co. Ltd., priority 2015, dated 2019) come the findings set out here.

Where only a bound is given, the exact number is not on record here.

`C=CC(=O)Nc1cccc(-n2c(=O)n(-c3ccc(Oc4ccccc4)cc3)c3cnccc32)c1`: the IC50 (in general, the midpoint of a concentration-inhibition curve) on BLK was 0.1 to 1 µM; at LYN, greater than 10 µM.
